The source made the active and inactive calls. No cut-off for these calls is given here.
Tests used:
[1] = system: Mus musculus; assay: Anti-NASH activity in HFD-induced nonalcoholic steatohepatitis C57BL/6J mouse model assessed as reduction in total cholesterol level in liver at 50 mg/kg, po administered daily for 4 weeks; assay type: functional, organism-based
[2] = target: T1, Peroxisome proliferator-activated receptor delta (Homo sapiens) (UniProt Q03181); assay: Antagonist activity against PPARbeta (unknown origin) by dual-luciferase reporter gene assay
T1 sequence (whole entry): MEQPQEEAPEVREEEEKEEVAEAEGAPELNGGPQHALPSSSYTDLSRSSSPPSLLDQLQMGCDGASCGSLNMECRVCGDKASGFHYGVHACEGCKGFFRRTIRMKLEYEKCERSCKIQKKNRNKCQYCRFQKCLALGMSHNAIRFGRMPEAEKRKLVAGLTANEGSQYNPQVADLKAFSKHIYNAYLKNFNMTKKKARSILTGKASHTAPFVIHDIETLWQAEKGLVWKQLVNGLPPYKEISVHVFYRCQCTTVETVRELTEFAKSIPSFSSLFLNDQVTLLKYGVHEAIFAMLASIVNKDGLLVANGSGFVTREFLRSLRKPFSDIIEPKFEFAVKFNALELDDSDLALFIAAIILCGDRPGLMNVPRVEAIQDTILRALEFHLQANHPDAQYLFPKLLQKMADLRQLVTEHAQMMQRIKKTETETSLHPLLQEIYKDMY

Activity [2] | Structure (SMILES) | Activity [1]
– | C[C@H](CCC(=O)NCCS(=O)(=O)O)[C@H]1CC[C@H]2[C@@H]3[C@@H](O)C[C@@H]4C[C@H](O)CC[C@]4(C)[C@H]3CC[C@]12C | Active
inactive | Cc1cccc(CN(C(=O)C2CCCC2)c2ccc(CC(=O)NCc3ccc4c(c3)OCO4)cc2)c1 | –

Reference: ChEMBL document CHEMBL5537131, “Discovery of 4-aminophenylacetamide derivatives as intestine-specific farnesoid X receptor antagonists for the potential treatment of nonalcoholic steatohepatitis” (Eur J Med Chem, 2024)
